# Measured values as given in patent US20140113958A1, “HCV Combination Therapy” (priority 2011, published 2014).
# Tested on: Huh-luc/neo-ET cells
# Test: Cellular toxicity by XTT dye reduction in Huh-luc/neo-ET cells
# Settings: second drug in combination with miravirsen (SPC3649); 95% confidence interval; median or individual values
smiles,measurement,value
"NC(=O)c1ncn([C@@H]2O[C@H](CO)[C@@H](O)[C@H]2O)n1 [Ribavirin, 1-[(2R,3R,4S,5R)-3,4-dihydroxy-5-(hydroxymethyl)oxolan-2-yl]-1H-1,2,4-triazole-3-carboxamide]","Cytotoxicity, Antagonism vol",0/0 μM^2%
same,"Cytotoxicity, Synergy vol",0/0 μM^2%
